Several values for one entry are separate records, joined by “and”; a condition that tells them apart may be missing. Equal entries are not always repeated. Only a part is listed here, and it is no random draw. Records with an inconclusive call do not appear. Some salts or complexes appear as unconnected parts, following the source record. Activity calls are given as the source filed them. Unless noted, calls come from the whole dose curve; as a rule, active = well fitted curve in the direction sought with a large enough effect; inconclusive = small, poorly fitted or top-dose-only effect, or another doubt; inactive = no such curve, though single readings can be large; an effect the other way counts as inactive or inconclusive.
Experiments:
[1] = biological target: Nuclear receptor subfamily 1 group I member 2 (Rattus norvegicus) (UniProt Q9R1A7); assay: qHTS assay for small molecule activators of the rat pregnane X receptor (rPXR) signaling pathway (AID 651751; call rule not given here; note: 0% is about no effect); conditions: rPXR reporter cells, luciferase (One-Glo), 24 h
[2] = qHTS assay for small molecule activators of the human pregnane X receptor (PXR) signaling pathway (AID 720659; call rule not given here; note: 0% is about no effect); conditions: DPX-2 HepG2 CYP3A4-luciferase, 24 h; at 92.3 µM (top of the series)
[3] = Drug repurposing screens with cells derived from glioblastoma tumor samples (AID 1345199); conditions: GBM patient neurospheres viability, ATP luminescence, 48 h; Potency: tumour line A; series mostly up to 46.1 µM; note: % is set by controls: 0 for no effect and ±100 for the full control effect; nearly all actives have a fitted effect of over 40% in size
Procedure, shortened: (§1)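 Primary testing used CD133+ neurospheres from four GBM patients, seven concentrations, 48 h exposure and ATP-based viability; confirmation added three slower-growing patient lines.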

Chains of the proteins cited; added tags and fusions are not shown.
UniProt Q9R1A7, whole entry: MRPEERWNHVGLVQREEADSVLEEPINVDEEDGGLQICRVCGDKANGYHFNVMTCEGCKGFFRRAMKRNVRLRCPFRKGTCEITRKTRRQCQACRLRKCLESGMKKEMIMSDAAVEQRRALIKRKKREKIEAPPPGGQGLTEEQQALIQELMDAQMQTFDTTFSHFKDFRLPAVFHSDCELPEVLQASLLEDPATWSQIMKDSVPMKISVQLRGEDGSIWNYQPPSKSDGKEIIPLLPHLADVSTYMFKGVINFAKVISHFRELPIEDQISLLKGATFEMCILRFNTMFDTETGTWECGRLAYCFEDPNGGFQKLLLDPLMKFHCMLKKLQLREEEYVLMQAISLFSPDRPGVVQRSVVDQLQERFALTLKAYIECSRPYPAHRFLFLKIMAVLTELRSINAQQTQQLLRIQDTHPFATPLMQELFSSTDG

astro = assay: as above; conditions: viability, ATP luminescence, 48 h
Procedure, shortened: as §1

HeLa = assay: Primary qHTS to identify gynecologic anti-cancer compounds using libraries of approved drugs and bioactive compounds (AID 1345084); conditions: Gynecologic cancer cell panel viability, ATPlite luminescence, 48 h; at 57.5 µM (top of the series) unless noted; note: % is set by controls: 0 for no effect and ±100 for the full control effect; nearly all actives have a fitted effect of over 55% in size
Procedure, shortened: (§2)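 Luminescence from the ATPlite ATP-monitoring reagent indicates viable cell number; lower signal means cytotoxicity. Cells received compound 16 h after seeding and were exposed for 48 h across five concentrations.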

Hek293T = assay: as above; conditions: Gynecologic cancer cell panel viability, ATPlite luminescence, 48 h, control line for the selectivity index; at 57.5 µM (top of the series) unless noted
Procedure, shortened: as §2

JEG-3 = assay: as above; conditions: Gynecologic cancer cell panel viability, ATPlite luminescence, 48 h; at 57.5 µM (top of the series) unless noted
Procedure, shortened: as §2

OV90 = assay: as above; conditions: Gynecologic cancer cell panel viability, ATPlite luminescence, 48 h; at 57.5 µM (top of the series) unless noted
Procedure, shortened: as §2

SKOV3 = assay: as above; conditions: Gynecologic cancer cell panel viability, ATPlite luminescence, 48 h; at 57.5 µM (top of the series) unless noted
Procedure, shortened: as §2

Tov-21-G = assay: as above; conditions: Gynecologic cancer cell panel viability, ATPlite luminescence, 48 h; at 57.5 µM (top of the series) unless noted
Procedure, shortened: as §2

Tov112D = assay: as above; conditions: Gynecologic cancer cell panel viability, ATPlite luminescence, 48 h; at 57.5 µM (top of the series) unless noted
Procedure, shortened: as §2

PA-1 = assay: as above; conditions: Gynecologic cancer cell panel viability, ATPlite luminescence, 48 h; at 57.5 µM (top of the series) unless noted
Procedure, shortened: as §2

CCC(C)(OO)OOC(C)(CC)OO (stereo unspecified)
inactive: max response [1] 7.19% and 2.23% | activation [2] -10.2% and 14.4%

CN(C)CCS
inactive: Potency [3] | activity, negative = cell killing (astro; at 45.9 µM (top of the series)) -19%

[NH4+].[O-][Cl+3]([O-])([O-])[O-]
inactive: max response [1] -4.2% | activation [2] -7.5%

O=[N+]([O-])OCC(CO[N+](=O)[O-])(CO[N+](=O)[O-])CO[N+](=O)[O-]
inactive: Potency [3] | activity, negative = cell killing (astro; at 45.9 µM (top of the series)) -14.7%

CCOP(=O)(CC)OCC
inactive: max response [1] -0.0905% | activation [2] -6.63%

OCCSCCO
inactive: activity change, negative = cytotoxicity (HeLa) 14.2% | activity change, negative = cytotoxicity (Hek293T) -6.3% | activity change, negative = cytotoxicity (JEG-3) -5.08% | activity change, negative = cytotoxicity (OV90) -10.3% | activity change, negative = cytotoxicity (SKOV3) 9.01% | activity change, negative = cytotoxicity (Tov-21-G) 1.29% | activity change, negative = cytotoxicity (Tov112D) 9.95% | Potency [3] | activity, negative = cell killing (astro; at 45.9 µM (top of the series)) -15.8%

O=[N+]([O-])[O-].[NH4+]
inactive: Potency [3] | activity, negative = cell killing (astro; at 45.9 µM (top of the series)) -15.4% | max response [1] 2.84% | activation [2] -5.9%

Cc1c([N+](=O)[O-])cccc1[N+](=O)[O-]
inactive: max response [1] -0.943% and -0.361% | activation [2] -12.1% and 28.4%

Cc1ccc([N+](=O)[O-])cc1[N+](=O)[O-]
inactive: max response [1] -5.43% and 0.0017% | activation [2] -9.42% and 0.498%

CC(C)OP(=O)(F)OC(C)C
inactive: Potency [3] | activity, negative = cell killing (astro; at 45.9 µM (top of the series)) -14.2%

C/C1=C2N=C(/C=C3N=C(/C(C)=C4\N=C(C(CC(N)=O)C4(C)CCC(=O)NCC(C)OP(=O)([O-])OC4C(CO)OC(n5cnc6cc(C)c(C)cc65)C4O)C4(C)N=C1C(CCC(N)=O)C4(C)CC(N)=O)C(CCC(N)=O)C\3(C)C)C(CCC(N)=O)C/2(C)CC(N)=O.[C-]#N.[Co] (stereo unspecified)
inactive: activity change, negative = cytotoxicity (HeLa) -13.3% [at 25.3 µM] | activity change, negative = cytotoxicity (Hek293T) 5.81% [at 25.3 µM] | activity change, negative = cytotoxicity (JEG-3) 14.7% [at 25.3 µM] | activity change, negative = cytotoxicity (OV90) 0.902% [at 25.3 µM] | activity change, negative = cytotoxicity (PA-1) 0.371% [at 25.3 µM] | activity change, negative = cytotoxicity (SKOV3) 36.6% [at 25.3 µM] | activity change, negative = cytotoxicity (Tov-21-G) -1.19% [at 25.3 µM] | activity change, negative = cytotoxicity (Tov112D) 4.94% [at 25.3 µM]

CCOP(=O)(CC)Oc1ccc([N+](=O)[O-])cc1 (stereo unspecified)
inactive: activity change, negative = cytotoxicity (HeLa) -20.3% | activity change, negative = cytotoxicity (PA-1) 3.12% | activity change, negative = cytotoxicity (SKOV3) -28.3% | activity change, negative = cytotoxicity (Tov-21-G) -27.9% | activity change, negative = cytotoxicity (Tov112D) -4.82% | Potency [3] | activity, negative = cell killing (astro; at 45.9 µM (top of the series)) -22.6%

Cc1ccc([N+](=O)[O-])c([N+](=O)[O-])c1
inactive: activation [2] -8.11% and 0.762%

CCOP(=S)(CC)Oc1cc(Cl)c(Cl)cc1Cl (stereo unspecified)
inactive: max response [1] 9.33%

CC(C)N(CCCl)C(C)C
inactive: Potency [3] | activity, negative = cell killing (astro; at 45.9 µM (top of the series)) -20.4%

Cc1cccc([N+](=O)[O-])c1[N+](=O)[O-]
inactive: activity change, negative = cytotoxicity (HeLa) 16.3% | activity change, negative = cytotoxicity (Hek293T) -0.894% | activity change, negative = cytotoxicity (JEG-3) -22.4% | activity change, negative = cytotoxicity (OV90) -25.5% | activity change, negative = cytotoxicity (PA-1) 4.55% | activity change, negative = cytotoxicity (Tov-21-G) 10.6% | activity change, negative = cytotoxicity (Tov112D) 11.2% | Potency [3] | activity, negative = cell killing (astro; at 91.6 µM (top of the series)) -13.6% | max response [1] -4.56% and 1.5% | activation [2] -3.38%

C/C1=C2N=C(/C=C3N=C(/C(C)=C4\[N-][C@@](C)([C@@H]5N=C1[C@](C)(CCC(=O)NC[C@@H](C)OP(=O)([O-])O[C@H]1[C@@H](O)[C@@H](n6cnc7cc(C)c(C)cc76)O[C@@H]1CO)[C@H]5CC(N)=O)[C@@](C)(CC(N)=O)[C@@H]4CCC(N)=O)[C@@](C)(CC(N)=O)[C@@H]\3CCC(N)=O)C(C)(C)[C@@H]/2CCC(N)=O.[C-]#N.[Co+3]
inactive: activity change, negative = cytotoxicity (HeLa) -11.4% | activity change, negative = cytotoxicity (Hek293T) -2.66% | activity change, negative = cytotoxicity (JEG-3) -21.5% | activity change, negative = cytotoxicity (PA-1) -15.9% | activity change, negative = cytotoxicity (SKOV3) -34.3% | activity change, negative = cytotoxicity (Tov-21-G) 10.2% | activity change, negative = cytotoxicity (Tov112D) -1.01% | Potency [3] | activity, negative = cell killing (astro; at 21.2 µM (top of the series)) -9.68%

O=[N+]([O-])c1cccc([N+](=O)[O-])c1
inactive: activity change, negative = cytotoxicity (HeLa) 1.81% [at 116 µM] | activity change, negative = cytotoxicity (JEG-3) -0.981% [at 116 µM] | activity change, negative = cytotoxicity (Tov112D) -8.55% [at 116 µM] | Potency [3] | activity, negative = cell killing (astro; at 45.9 µM (top of the series)) -2.33% | activity, negative = cell killing (astro; at 91.6 µM (top of the series)) -16.5% | max response [1] 0.3% and -9.11% | activation [2] -0.464% and -2.97%

Source: PubChem BioAssay (NCATS)
